Source: patent US6852332B2, “Liquid vitamin composition” (Adisseo France S.A.S., priority 2000, dated 2005)

Test: Stability of second liquid vitamin formulation (Example 1), stored at 40° C., HPLC
Assay type: physicochemical
Method: The stability of each formulation in the composition each was determined over a 4 weeks period. The concentration of vitamin in the formulation was analysed using standard analytical methods (high performance liquid chromatography). The formulations were stored at 40° C. over the test period.

CONC at T = 0 (immediately after preparation): 0.265 g % g of solution | CONC at T = 1 week (stored at 40° C., 1 week): 0.245 g % g of solution | CONC at T = 2 weeks (stored at 40° C., 2 weeks): 0.253 g % g of solution | CONC at T = 3 weeks (stored at 40° C., 3 weeks): 0.263 g % g of solution | CONC at T = 4 weeks (stored at 40° C., 4 weeks): 0.248 g % g of solution
Substance: thiamine mononitrate [Vitamin B1]
